Tests used:
Assay in all cases: [35S] GTPgammaS binding test
Mu-type opioid receptor = Mu-type opioid receptor (Homo sapiens, UniProt P35372)
Description: (§1) In a [3SS] GTPγS binding test, the opioid receptor agonist activity of test compounds based on a GTP-GDP exchange reaction was evaluated. In the test, a cell membrane sample (75 μg/well) was seeded in a 96-well microplate, and test compounds at various concentrations, 30 μM guanosine-5′-diphosphate (GDP: Sigma-Aldrich Co.,

By UniProt entry, the sequences of proteins in these tests, tags left out.
UniProt P35372, whole entry: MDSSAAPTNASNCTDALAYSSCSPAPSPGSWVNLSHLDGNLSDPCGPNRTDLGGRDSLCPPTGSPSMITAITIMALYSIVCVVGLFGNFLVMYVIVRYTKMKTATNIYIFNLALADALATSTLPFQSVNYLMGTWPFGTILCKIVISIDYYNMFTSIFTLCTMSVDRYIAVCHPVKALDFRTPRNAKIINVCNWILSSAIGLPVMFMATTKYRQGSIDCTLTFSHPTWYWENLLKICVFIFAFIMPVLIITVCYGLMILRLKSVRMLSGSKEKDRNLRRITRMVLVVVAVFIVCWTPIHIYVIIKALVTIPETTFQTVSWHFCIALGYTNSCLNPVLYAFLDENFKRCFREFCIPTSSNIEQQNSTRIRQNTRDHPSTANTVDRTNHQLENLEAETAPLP
UniProt P41143, whole entry: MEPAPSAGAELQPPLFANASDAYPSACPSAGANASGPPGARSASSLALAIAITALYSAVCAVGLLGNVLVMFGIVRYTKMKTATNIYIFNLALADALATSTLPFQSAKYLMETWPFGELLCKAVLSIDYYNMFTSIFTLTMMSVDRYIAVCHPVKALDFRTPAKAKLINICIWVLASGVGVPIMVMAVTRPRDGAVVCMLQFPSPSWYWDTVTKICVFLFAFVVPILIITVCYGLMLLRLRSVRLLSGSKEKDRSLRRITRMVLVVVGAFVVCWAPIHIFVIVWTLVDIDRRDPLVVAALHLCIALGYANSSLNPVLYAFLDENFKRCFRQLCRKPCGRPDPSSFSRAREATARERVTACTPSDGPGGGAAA
UniProt P41145, whole entry: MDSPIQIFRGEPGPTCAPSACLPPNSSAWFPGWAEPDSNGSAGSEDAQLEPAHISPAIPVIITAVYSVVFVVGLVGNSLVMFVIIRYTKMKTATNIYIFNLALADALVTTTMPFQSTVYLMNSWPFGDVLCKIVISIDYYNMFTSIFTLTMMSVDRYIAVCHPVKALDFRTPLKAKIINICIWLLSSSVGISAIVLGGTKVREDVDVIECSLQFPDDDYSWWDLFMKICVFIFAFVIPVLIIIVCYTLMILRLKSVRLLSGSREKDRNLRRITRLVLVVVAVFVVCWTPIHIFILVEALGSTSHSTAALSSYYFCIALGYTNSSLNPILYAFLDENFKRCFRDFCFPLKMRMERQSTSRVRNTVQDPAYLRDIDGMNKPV

[1] = target: Delta-type opioid receptor (Homo sapiens, UniProt P41143)
Description: as §1

[2] = target: Kappa-type opioid receptor (Homo sapiens, UniProt P41145)
Description: as §1

With CN(Cc1ccccc1)C(=O)C1=C[C@@]23CC[C@]1(O)[C@@H]1Oc4c(O)ccc5c4[C@@]12CCN(CC1CC1)[C@@H]3C5 the EC50 (Mu-type opioid receptor) was 2.77 nM, the EC50 [1] was 1.7 nM and the EC50 [2] was 2.8 pM.
